Laboratory results published in patent US9848599B2, “Co-crystals of 3-iodopropynyl butylcarbamate” (priority 2012, dated 2017).

Assay: Solubility in water
Details: relative to IPBC

Co-Crystal Containing 3-iodopropynyl butylcarbamate and calcium chloride in a 4:1 Molar Ratio [Co-Crystal 4]
aqueous solubility greater than that of IPBC: approx. 50%

Co-Crystal Containing 3-iodopropynyl butylcarbamate and tetrabutyl ammonium iodide in a 3:1 Molar Ratio [Co-Crystal 3]
aqueous solubility greater than that of IPBC: approx. 40%
